# Ab-14 light chain CDR variants: yeast mating affinities

Reference: Engelhart et al. 2022, doi:10.1038/s41597-022-01779-4. File: FLAb, binding data.

The target is the same throughout: PDVDLGDISGINAS, from the HR2 region of SARS-CoV-2 spike.

Each scFv is VH, a 15-residue (Gly4Ser)3 linker, VL, as in the parent Ab-14, and differs from it in the CDRs of the light chain only.
VH: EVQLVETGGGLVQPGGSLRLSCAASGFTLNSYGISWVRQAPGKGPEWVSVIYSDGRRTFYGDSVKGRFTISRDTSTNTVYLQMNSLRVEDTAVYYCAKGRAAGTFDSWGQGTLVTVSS
VL: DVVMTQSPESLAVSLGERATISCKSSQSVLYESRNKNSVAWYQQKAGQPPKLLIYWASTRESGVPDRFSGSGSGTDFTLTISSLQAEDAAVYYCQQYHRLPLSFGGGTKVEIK

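The parent was found by panning a naive human phage display library on the peptide. Library AAYL50 holds single substitutions and randomly drawn double and triple substitutions in the CDRs. Affinity was read by AlphaSeq, a pooled yeast mating assay with surface-displayed partners. Pairs that bind mate more often; barcode pairs of the diploids are counted by sequencing. A regression on co-assayed BCL2-family reference pairs converts the normalised counts of each replicate to an apparent Kd. Each pool was mated in three replicate cultures.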

Sequences are complete VL domains.
Every variant below is changed at L30 of the VL (sequential numbering).
Values are apparent Kd, the geometric mean of the replicates that gave a signal; lower means stronger binding.
"nd" marks a missing value. The strain was present, yet no cells mated with the target were sequenced in any replicate, which points to weak or no binding.
In this assay the parent's reference entry averaged 4.4 nM; its copy inside this library read 48 nM.
As a blank, each scFv also met three strains without target: over library AAYL50, 18% of these pairings were detected, typically at 15 µM and seldom below 970 nM. For each scFv, signals with the empty controls are counted beside the result.

Variant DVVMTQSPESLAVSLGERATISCKSSQSVQYESRNKNSVIWYQQKAGQPPKLLIYWASTRESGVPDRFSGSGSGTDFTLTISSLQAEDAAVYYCQQYHRLPNSFGGGTKVEIK showed 730 nM (1 of 3 replicates; controls 0 of 9).
Variant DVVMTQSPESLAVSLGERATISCKSSQSVMYESRNKNSVAWYQQKAGQPPKLLIYWASTRERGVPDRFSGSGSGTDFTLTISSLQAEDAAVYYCQRYHRLPLSFGGGTKVEIK showed 11 µM (2 of 3 replicates; controls 2 of 9).
Variant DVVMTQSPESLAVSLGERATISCKSSQAVMYESRNKNSVAWYQQKAGQPPKLLIYWASTRHSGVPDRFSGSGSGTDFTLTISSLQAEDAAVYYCQQYHRLPLSFGGGTKVEIK showed 53 nM (3 of 3 replicates; controls 1 of 9).
Variant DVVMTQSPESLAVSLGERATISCKSLQSVHYESRNKNSVAWYQQKAGQPPKLLIYWASTRESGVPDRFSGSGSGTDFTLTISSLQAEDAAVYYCQQYHRLPLSFGGGTKVEIK showed nd (0 of 3 replicates; controls 0 of 9).
Variant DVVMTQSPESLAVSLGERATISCKSIQSVCYENRNKNSVAWYQQKAGQPPKLLIYWASTRESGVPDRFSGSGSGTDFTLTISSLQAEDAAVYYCQQYHRLPLSFGGGTKVEIK showed 31 nM (3 of 3 replicates; controls 2 of 9).
Variant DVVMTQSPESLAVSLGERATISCKSSQSVWYECRNKNDVAWYQQKAGQPPKLLIYWASTRESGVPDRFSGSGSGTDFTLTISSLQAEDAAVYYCQQYHRLPLSFGGGTKVEIK showed 24 µM (1 of 3 replicates; controls 3 of 9).
Variant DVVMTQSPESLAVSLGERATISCKSSQSVMAESRNKNSVAWYQQKAGQPPKLLIYWAHTRESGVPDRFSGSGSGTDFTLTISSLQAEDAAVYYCQQYHRLPLSFGGGTKVEIK showed 100 nM (3 of 3 replicates; controls 0 of 9).
Variant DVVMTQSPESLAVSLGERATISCKSSQSVQYESRWKNSVAWYQQKAGQPPKLLIYWASTRESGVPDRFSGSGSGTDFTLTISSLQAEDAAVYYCQPYHRLPLSFGGGTKVEIK showed 140 nM (3 of 3 replicates; controls 4 of 9).
Variant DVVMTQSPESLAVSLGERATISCKSSQSVQYESRNINSVAWYQQKAGQPPKLLIYWASARESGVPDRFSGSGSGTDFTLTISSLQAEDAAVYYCQQYHRLPLSFGGGTKVEIK showed 58 nM (3 of 3 replicates; controls 6 of 9).
Variant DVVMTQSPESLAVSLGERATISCKSSQSVQYESRNKWSVAWYQQKAGQPPKLLIYWKSTRESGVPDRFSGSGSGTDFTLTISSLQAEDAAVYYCQQYHRLPLSFGGGTKVEIK showed nd (0 of 3 replicates; controls 0 of 9).
Variant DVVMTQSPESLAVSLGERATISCKSSQSVFYESWNKNSVAWYQQKAGQPPKLLIYWASTRESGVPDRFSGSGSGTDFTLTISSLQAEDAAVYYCQQYHRLNLSFGGGTKVEIK showed 1.2 µM (1 of 3 replicates; controls 1 of 9).
Variant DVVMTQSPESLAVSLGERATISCFSQQSVVYESRNKNSVAWYQQKAGQPPKLLIYWASTRESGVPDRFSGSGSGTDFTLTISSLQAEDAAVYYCQQYHRLPLSFGGGTKVEIK showed 93 nM (3 of 3 replicates; controls 6 of 9).
Variant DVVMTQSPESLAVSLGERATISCKSSQSVWIESRNKNSVAWYQQKAGQPPKLLIYWASTRESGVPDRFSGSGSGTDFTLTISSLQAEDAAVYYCQQYHRLDLSFGGGTKVEIK showed nd (0 of 3 replicates; controls 1 of 9).
Variant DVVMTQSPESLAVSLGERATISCKSSQSQGYESRNKNSVAWYQQKAGQPPKLLIYWASTKESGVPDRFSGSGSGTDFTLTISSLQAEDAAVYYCQQYHRLPLSFGGGTKVEIK showed nd (0 of 3 replicates; controls 0 of 9).
Variant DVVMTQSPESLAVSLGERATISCKSSQSVPYESRNKNSVAWYQQKAGQPPKLLIYWASTTEYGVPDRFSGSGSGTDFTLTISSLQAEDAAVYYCQQYHRLPLSFGGGTKVEIK showed nd (0 of 3 replicates; controls 0 of 9).
Variant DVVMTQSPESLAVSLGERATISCKSSQFVDYESRNKLSVAWYQQKAGQPPKLLIYWASTRESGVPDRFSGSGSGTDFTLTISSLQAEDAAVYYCQQYHRLPLSFGGGTKVEIK showed 27 nM (3 of 3 replicates; controls 0 of 9).
Variant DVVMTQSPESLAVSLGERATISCKSSQSVIYESRNKNSDAWYQQKAGQPPKLLIYWASTRESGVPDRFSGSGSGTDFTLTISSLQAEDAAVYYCQQYHRWPLSFGGGTKVEIK showed nd (0 of 3 replicates; controls 0 of 9).
Variant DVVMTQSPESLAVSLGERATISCKSSQSVILESRNKNSVAWYQQKAGQPPKLLIYWASTSESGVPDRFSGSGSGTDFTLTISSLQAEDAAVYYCQQYHRLPLSFGGGTKVEIK showed nd (0 of 3 replicates; controls 0 of 9).
Variant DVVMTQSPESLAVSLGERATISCKSSQSVYYESRNKNSVAWYQQKAGQPPKLLIYWTSTRETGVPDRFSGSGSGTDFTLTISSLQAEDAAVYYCQQYHRLPLSFGGGTKVEIK showed 11 nM (3 of 3 replicates; controls 1 of 9).
Variant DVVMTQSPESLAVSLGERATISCKSSQGVEYESRNKNSVAWYQQKAGQPPKLLIYWASTRESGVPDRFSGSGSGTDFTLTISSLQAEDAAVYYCQQYHYLPLSFGGGTKVEIK showed 9.7 nM (3 of 3 replicates; controls 2 of 9).
Variant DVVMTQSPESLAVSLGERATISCKSSQSVCYESRNKNDQAWYQQKAGQPPKLLIYWASTRESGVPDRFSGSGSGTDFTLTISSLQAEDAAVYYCQQYHRLPLSFGGGTKVEIK showed nd (0 of 3 replicates; controls 0 of 9).
Variant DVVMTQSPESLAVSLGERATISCKSSQSVVPESRNKNSDAWYQQKAGQPPKLLIYWASTRESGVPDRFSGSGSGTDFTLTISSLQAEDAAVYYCQQYHRLPLSFGGGTKVEIK showed nd (0 of 3 replicates; controls 3 of 9).
Variant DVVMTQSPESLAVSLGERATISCKSSQSVNYYSINKNSVAWYQQKAGQPPKLLIYWASTRESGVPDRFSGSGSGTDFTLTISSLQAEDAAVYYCQQYHRLPLSFGGGTKVEIK showed nd (0 of 3 replicates; controls 0 of 9).
Variant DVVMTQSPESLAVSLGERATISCKSSQSVKYESRNKNSVAWYQQKAGQPPKLLIYWASTRESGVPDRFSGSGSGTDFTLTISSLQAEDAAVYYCQQYHRGPLSFGGGTKVEIK showed 9.5 µM (1 of 3 replicates; controls 1 of 9).
Variant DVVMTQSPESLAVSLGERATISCKSSQSVQYESRNKNSVAWYQQKAGQPPKLLIYWALTRESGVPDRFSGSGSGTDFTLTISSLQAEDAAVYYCQQYHRLPLSFGGGTKVEIK showed 11 µM (3 of 3 replicates; controls 6 of 9).